# Assay results as given in patent US11484534B2, “Methods for treating HCV” (priority 2013, dated 2022).
# Format: in vivo, human
# Conditions: Compound 1 300 mg vs 200 mg
# Description: Two open-label, multicenter studies were conducted to evaluate the efficacy, safety, and pharmacokinetics of co-administration of Compound 1 (200 or 300 mg QD) and Compound 2 (40 or 120 mg QD) with or without RBV in GT1-, GT2- or GT3-infected subjects. Blood samples for pharmacokinetic analysis were collected throughout the study treatment period.
compound,measurement,value
CC(C)(C)[C@@H]1NC(=O)O[C@@H]2CCC[C@H]2OC/C=C/C(F)(F)c2nc3ccccc3nc2O[C@@H]2C[C@@H](C(=O)N[C@]3(C(=O)NS(=O)(=O)C4(C)CC4)C[C@H]3C(F)F)N(C2)C1=O [Compound 1],steady state exposure following 300 mg relative to 200 mg,approximately 3.7 fold
